For this assay, the system named is interaction between preS1/2-48^myr-FITC and 4B10. Description: Peptide competition assay: interaction between preS1/2-48^myr-FITC and immobilized 4B10. The conditions noted are these: read-out: IC50, 50% inhibition of the interaction between preS1/2-48^myr-FITC and 4B10; immobilized N-biotinylated 4B10; 10 μM preS1/2-48^myr-FITC; competitor at 1.25-, 2.5-, or 5-fold molar ratio; triplicate, repeated at least three times; calculated from data of Fig. 2B.
As to `CCCCCCCCCCCCCC(=O)NCC(=O)N[C@H](C(=O)N[C@@H](CC(N)=O)C(=O)N[C@@H](CC(C)C)C(=O)N[C@@H](CO)C(=O)N[C@H](C(=O)N[C@@H](Cc1ccccc1)C(=O)N[C@@H](Cc1ccccc1)C(=O)N1CCC[C@H]1C(=O)N[C@@H](CC(=O)O)C(=O)N[C@@H](Cc1c[nH]cn1)C(=O)N[C@@H](CCC(N)=O)C(=O)N[C@@H](CC(C)C)C(=O)N[C@@H](CC(=O)O)C(=O)N1CCC[C@H]1C(=O)N[C@@H](C)C(=O)N[C@@H](Cc1ccccc1)C(=O)NCC(=O)N[C@@H](C)C(=O)N[C@@H](CC(N)=O)C(=O)N[C@@H](CO)C(=O)N[C@@H](CC(N)=O)C(=O)N[C@@H](CC(N)=O)C(=O)N1CCC[C@H]1C(=O)N[C@@H](CC(=O)O)C(=O)N[C@@H](Cc1c[nH]c2ccccc12)C(=O)N[C@@H](CC(=O)O)C(=O)N[C@@H](Cc1ccccc1)C(=O)N[C@@H](CC(N)=O)C(=O)N1CCC[C@H]1C(=O)N[C@@H](CC(N)=O)C(=O)N[C@@H](CCCCN)C(=O)N[C@@H](CC(=O)O)C(=O)N[C@@H](Cc1c[nH]cn1)C(=O)N[C@@H](Cc1c[nH]c2ccccc12)C(=O)N1CCC[C@H]1C(=O)N[C@@H](CCC(=O)O)C(=O)N[C@@H](C)C(=O)N[C@@H](CC(N)=O)C(=O)N[C@@H](CCCCN)C(=O)N[C@H](C(=O)NCC(N)=O)C(C)C)C(C)C)[C@@H](C)O` [Δ8-12], the IC50 was 15.6 µM.

Take `CCCCCCCCCCCCCC(=O)NCC(=O)N[C@H](C(=O)N[C@@H](CC(N)=O)C(=O)N[C@@H](CC(C)C)C(=O)N[C@@H](CO)C(=O)N[C@H](C(=O)N1CCC[C@H]1C(=O)N[C@@H](CC(N)=O)C(=O)N1CCC[C@H]1C(=O)N[C@@H](CC(C)C)C(=O)NCC(=O)N[C@@H](CCC(N)=O)C(=O)N[C@@H](CC(C)C)C(=O)N[C@@H](CC(=O)O)C(=O)N1CCC[C@H]1C(=O)N[C@@H](C)C(=O)N[C@@H](Cc1ccccc1)C(=O)NCC(=O)N[C@@H](C)C(=O)N[C@@H](CC(N)=O)C(=O)N[C@@H](CO)C(=O)N[C@@H](CC(N)=O)C(=O)N[C@@H](CC(N)=O)C(=O)N1CCC[C@H]1C(=O)N[C@@H](CC(=O)O)C(=O)N[C@@H](Cc1c[nH]c2ccccc12)C(=O)N[C@@H](CC(=O)O)C(=O)N[C@@H](Cc1ccccc1)C(=O)N[C@@H](CC(N)=O)C(=O)N1CCC[C@H]1C(=O)N[C@@H](CC(N)=O)C(=O)N[C@@H](CCCCN)C(=O)N[C@@H](CC(=O)O)C(=O)N[C@@H](Cc1c[nH]cn1)C(=O)N[C@@H](Cc1c[nH]c2ccccc12)C(=O)N1CCC[C@H]1C(=O)N[C@@H](CCC(=O)O)C(=O)N[C@@H](C)C(=O)N[C@@H](CC(N)=O)C(=O)N[C@@H](CCCCN)C(=O)N[C@H](C(=O)NCC(N)=O)C(C)C)C(C)C)[C@@H](C)O` [Δ13-17]: the IC50 is 32.2 µM.

With `CCCCCCCCCCCCCC(=O)NCC(=O)N[C@H](C(=O)N[C@@H](CC(N)=O)C(=O)N[C@@H](CC(C)C)C(=O)N[C@@H](CO)C(=O)N[C@H](C(=O)N1CCC[C@H]1C(=O)N[C@@H](CC(N)=O)C(=O)N1CCC[C@H]1C(=O)N[C@@H](CC(C)C)C(=O)NCC(=O)N[C@@H](Cc1ccccc1)C(=O)N[C@@H](Cc1ccccc1)C(=O)N1CCC[C@H]1C(=O)N[C@@H](CC(=O)O)C(=O)N[C@@H](Cc1c[nH]cn1)C(=O)N[C@@H](Cc1ccccc1)C(=O)NCC(=O)N[C@@H](C)C(=O)N[C@@H](CC(N)=O)C(=O)N[C@@H](CO)C(=O)N[C@@H](CC(N)=O)C(=O)N[C@@H](CC(N)=O)C(=O)N1CCC[C@H]1C(=O)N[C@@H](CC(=O)O)C(=O)N[C@@H](Cc1c[nH]c2ccccc12)C(=O)N[C@@H](CC(=O)O)C(=O)N[C@@H](Cc1ccccc1)C(=O)N[C@@H](CC(N)=O)C(=O)N1CCC[C@H]1C(=O)N[C@@H](CC(N)=O)C(=O)N[C@@H](CCCCN)C(=O)N[C@@H](CC(=O)O)C(=O)N[C@@H](Cc1c[nH]cn1)C(=O)N[C@@H](Cc1c[nH]c2ccccc12)C(=O)N1CCC[C@H]1C(=O)N[C@@H](CCC(=O)O)C(=O)N[C@@H](C)C(=O)N[C@@H](CC(N)=O)C(=O)N[C@@H](CCCCN)C(=O)N[C@H](C(=O)NCC(N)=O)C(C)C)C(C)C)[C@@H](C)O` [Δ18-22], the IC50 was 27.6 µM.

Take `CCCCCCCCCCCCCC(=O)NCC(=O)N[C@H](C(=O)N[C@@H](CC(N)=O)C(=O)N[C@@H](CC(C)C)C(=O)N[C@@H](CO)C(=O)N[C@H](C(=O)N1CCC[C@H]1C(=O)N[C@@H](CC(N)=O)C(=O)N1CCC[C@H]1C(=O)N[C@@H](CC(C)C)C(=O)NCC(=O)N[C@@H](Cc1ccccc1)C(=O)N[C@@H](Cc1ccccc1)C(=O)N1CCC[C@H]1C(=O)N[C@@H](CC(=O)O)C(=O)N[C@@H](Cc1c[nH]cn1)C(=O)N[C@@H](CCC(N)=O)C(=O)N[C@@H](CC(C)C)C(=O)N[C@@H](CC(=O)O)C(=O)N1CCC[C@H]1C(=O)N[C@@H](C)C(=O)N[C@@H](CC(N)=O)C(=O)N[C@@H](CC(N)=O)C(=O)N1CCC[C@H]1C(=O)N[C@@H](CC(=O)O)C(=O)N[C@@H](Cc1c[nH]c2ccccc12)C(=O)N[C@@H](CC(=O)O)C(=O)N[C@@H](Cc1ccccc1)C(=O)N[C@@H](CC(N)=O)C(=O)N1CCC[C@H]1C(=O)N[C@@H](CC(N)=O)C(=O)N[C@@H](CCCCN)C(=O)N[C@@H](CC(=O)O)C(=O)N[C@@H](Cc1c[nH]cn1)C(=O)N[C@@H](Cc1c[nH]c2ccccc12)C(=O)N1CCC[C@H]1C(=O)N[C@@H](CCC(=O)O)C(=O)N[C@@H](C)C(=O)N[C@@H](CC(N)=O)C(=O)N[C@@H](CCCCN)C(=O)N[C@H](C(=O)NCC(N)=O)C(C)C)C(C)C)[C@@H](C)O` [Δ23-27]: the IC50 is 28.8 µM.

(Values after PMC4935942, “Efficient Inhibition of Hepatitis B Virus Infection by a preS1-binding Peptide” (Scientific Reports, 2016).)
